Drawing on patent EP0167459B1, “2-Amino oxazolines and process for their preparation” (priority 1984, dated 1986), this text covers IC50 for three compounds.

Sequences of proteins named here, by UniProt entry; tags and fusion partners are left off.
UniProt P23975, whole entry: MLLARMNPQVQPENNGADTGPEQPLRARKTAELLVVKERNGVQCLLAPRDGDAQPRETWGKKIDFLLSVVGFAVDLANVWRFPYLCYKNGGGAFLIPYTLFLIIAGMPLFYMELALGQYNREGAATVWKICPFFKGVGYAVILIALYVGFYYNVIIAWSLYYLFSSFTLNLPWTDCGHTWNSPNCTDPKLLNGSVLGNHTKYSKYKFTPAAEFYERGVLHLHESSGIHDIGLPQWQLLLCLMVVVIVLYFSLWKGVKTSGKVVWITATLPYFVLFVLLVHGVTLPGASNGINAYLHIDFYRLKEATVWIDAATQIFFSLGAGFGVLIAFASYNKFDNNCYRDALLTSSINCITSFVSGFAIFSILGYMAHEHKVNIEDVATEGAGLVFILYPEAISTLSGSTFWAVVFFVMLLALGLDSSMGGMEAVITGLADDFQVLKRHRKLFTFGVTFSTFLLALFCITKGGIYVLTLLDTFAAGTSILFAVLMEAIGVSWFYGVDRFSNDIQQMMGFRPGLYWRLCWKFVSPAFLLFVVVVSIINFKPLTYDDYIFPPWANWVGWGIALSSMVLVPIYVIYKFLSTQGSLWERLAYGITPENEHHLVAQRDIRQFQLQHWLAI
UniProt P31645, whole entry: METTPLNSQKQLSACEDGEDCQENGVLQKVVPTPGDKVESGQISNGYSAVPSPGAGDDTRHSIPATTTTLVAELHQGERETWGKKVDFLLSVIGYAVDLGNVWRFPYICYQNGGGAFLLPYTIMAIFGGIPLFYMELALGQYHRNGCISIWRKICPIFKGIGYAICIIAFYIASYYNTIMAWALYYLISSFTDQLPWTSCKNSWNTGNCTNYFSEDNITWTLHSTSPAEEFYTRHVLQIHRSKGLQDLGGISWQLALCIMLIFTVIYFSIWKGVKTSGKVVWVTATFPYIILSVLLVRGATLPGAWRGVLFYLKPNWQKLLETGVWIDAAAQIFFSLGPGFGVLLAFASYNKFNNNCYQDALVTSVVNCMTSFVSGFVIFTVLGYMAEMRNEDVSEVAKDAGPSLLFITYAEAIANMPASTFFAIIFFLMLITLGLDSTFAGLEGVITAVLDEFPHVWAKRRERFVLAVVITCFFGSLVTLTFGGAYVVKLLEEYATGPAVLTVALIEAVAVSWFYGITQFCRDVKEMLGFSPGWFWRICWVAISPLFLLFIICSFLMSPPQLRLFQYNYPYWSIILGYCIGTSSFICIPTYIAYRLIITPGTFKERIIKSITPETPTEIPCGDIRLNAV
UniProt Q01959, whole entry: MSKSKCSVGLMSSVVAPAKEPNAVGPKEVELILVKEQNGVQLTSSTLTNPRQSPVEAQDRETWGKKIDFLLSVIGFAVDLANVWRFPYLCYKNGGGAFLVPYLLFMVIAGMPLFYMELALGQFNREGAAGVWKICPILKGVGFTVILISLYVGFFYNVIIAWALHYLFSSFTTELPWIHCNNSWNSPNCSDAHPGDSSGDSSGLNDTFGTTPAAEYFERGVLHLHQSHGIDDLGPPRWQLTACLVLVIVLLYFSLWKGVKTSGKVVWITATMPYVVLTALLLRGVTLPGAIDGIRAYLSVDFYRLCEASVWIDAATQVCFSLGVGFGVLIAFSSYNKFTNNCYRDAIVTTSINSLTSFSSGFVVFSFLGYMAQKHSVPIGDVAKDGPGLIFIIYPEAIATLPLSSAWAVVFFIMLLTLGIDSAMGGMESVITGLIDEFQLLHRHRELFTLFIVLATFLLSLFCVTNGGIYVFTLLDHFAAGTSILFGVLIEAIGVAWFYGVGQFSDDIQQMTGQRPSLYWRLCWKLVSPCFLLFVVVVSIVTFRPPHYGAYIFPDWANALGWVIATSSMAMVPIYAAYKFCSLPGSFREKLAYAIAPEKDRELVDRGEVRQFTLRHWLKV

Structures are written as SMILES. pIC50: −log10 of the molar value.

For one experiment, the target named is NAd (Homo sapiens, UniProt P23975). In words: Inhibition of neurotransmitter uptake in vitro, noradrenaline. Format: cell-based. The conditions noted are these: read-out: UPTAKE NEUROTR[…] VITRO IC 50 M NAd; NAd = Noradrénaline; tested form: HCl.
A further experiment concerns the target RECEPTEURS α2. In words: Affinity for the α2 receptor in vitro. Format: binding. The conditions noted are these: read-out: AFFINITE RECEPTEURS α2 IN VITRO IC 50 M; tested form: HCl.
Another experiment has as its target 5-HT (Homo sapiens, UniProt P31645). The experiment can be described thus: Inhibition of neurotransmitter uptake in vitro, 5-HT. Format: cell-based. The conditions noted are these: read-out: UPTAKE NEUROTR[…] VITRO IC 50 M 5-HT; 5-HT = 5-hydroxytryptophane (so in the source); tested form: HCl.
For another experiment, the target named is DA (Homo sapiens, UniProt Q01959). The experiment can be described thus: Inhibition of neurotransmitter uptake in vitro, dopamine. Format: cell-based. The conditions noted are these: read-out: UPTAKE NEUROTR[…] VITRO IC 50 M DA, tested form: HCl.

As for `COc1ccccc1CC1COC(N)=N1` (centres unmarked), the pIC50 on NAd was 6.00; at RECEPTEURS α2 it was 8.43.

On to `NC1=NC(Cc2ccccc2)CO1` (single isomer, unassigned) [ex. 9], for which the pIC50 at NAd was 5.92; at RECEPTEURS α2 it was 7.44; on 5-HT, 4.28; on DA, 5.08.

As to `NC1=NC(Cc2ccccc2)CO1` (single isomer, unassigned) [ex. 14], the pIC50 is 6.00 on NAd and 7.40 on RECEPTEURS α2.
